The source of these data is publication PMC10660311, “Synthetic Dual Cysteine-ADP Ribosylated Peptides from the Androgen Receptor are Recognized by the DTX3L/PARP9 Complex” (ACS Chemical Biology, 2023).

Experiment [1] addresses dual ADP-ribosylated AR peptide 1, bis-ADP-ribosylated AR(280-294): CF-RPTPC(ADPr)APLAEC(ADPr)KGSL-OH. Nature of the experiment: fluorescence polarisation; 50 nM CF-labelled AR peptide; recombinant protein or preassembled complex titrated (2500 nM or 2000 nM highest, 2-fold serial dilution); 20 mM Tris-HCl pH 7.5, 50 mM NaCl, 0.1 mM EDTA, 2 mM DTT; RT, 45 min; triplicate; fit for specific binding with Hill slope. A general note: In fluorescence polarisation assays a small probe gives low polarisation when free and higher when bound to something large.

The target is the same in experiment [2]. Nature of the experiment: fluorescence polarisation; as a1 with 50 uM free ADP-ribose added as competitor; complex up to 2000 nM.

Broadly, the Kd is the constant that tells how readily two partners part at equilibrium.

Regarding “DTX3L/PARP9 complex (from UniProt Q8TDB6 1-740; Q8IXQ6 1-854)”, the equilibrium dissociation constant (Kd) in experiment [1] is 80.5 nM. This substance also registered a percent of binding left with 50 uM free ADP-ribose in experiment [2] of 17%.
